Activation data for 95 compounds are collected here from PubChem BioAssay AID1961 (Sanford-Burnham Center for Chemical Genomics, 2009).

Chains of the proteins cited; added tags and fusions are not shown. Lines headed by an entry give the natural chain unless they say otherwise; changes in a name come on top.
UniProt Q9Y2T6: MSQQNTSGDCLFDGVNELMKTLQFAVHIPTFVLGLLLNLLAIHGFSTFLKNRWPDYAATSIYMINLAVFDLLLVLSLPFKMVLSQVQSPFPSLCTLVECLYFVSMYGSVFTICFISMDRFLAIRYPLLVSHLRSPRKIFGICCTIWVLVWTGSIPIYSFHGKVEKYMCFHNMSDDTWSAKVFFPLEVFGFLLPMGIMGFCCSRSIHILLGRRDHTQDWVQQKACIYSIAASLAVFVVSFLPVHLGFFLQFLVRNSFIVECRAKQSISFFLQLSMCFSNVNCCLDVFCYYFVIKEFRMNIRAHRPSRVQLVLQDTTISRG

SMILES strings stand for the structures. Values joined by “and” are separate entries in the source; they are usually repeats but may differ in a detail not shown here. Identical values can stand only once. The list shows a part of the results, in another mix than the full data. Active and inactive are the calls of the source.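 How the source made its calls: active means activation above 40% with more than 50 cells counted in the well; inconclusive means wells holding fewer than 50 cells, flagged as toxic or sparse; inactive means the rest.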

For the assay, the target named is G-protein coupled receptor 55 (Homo sapiens) (UniProt Q9Y2T6). As to the kind of experiment: GPR55 agonists via beta-arrestin recruitment, primary screen, imaging, U2OS cells, beta-arrestin-GFP redistribution (AID 1961).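 Further: U2OS osteosarcoma cells stably expressing GPR55 and beta-arrestin-GFP; plate controls were DMSO negative control for no effect and LPI positive control for full effect.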 Conditions: at 10 µM, hits give high values.
As to `CCOC(=O)c1ccc(NC(=O)C(C)(CCl)SC)cc1` (stereo not given), the activation is inactive: 0.4%.

With `CCC(C)N(CC(C)C)C(=S)SC(NC(C)=O)C(Cl)(Cl)Cl` (stereo not given), the activation is inactive: -0.2%.

As for `O=C(COc1ccccc1)OC1CN2CCC1CC2` (stereo not given), the activation is inactive: 0.7%.

Turning to `O=C(Nc1ccncc1[N+](=O)[O-])c1ccc([N+](=O)[O-])cc1[N+](=O)[O-]`, the activation is inactive: 0.2%.

In the case of `CCOC(=O)Nc1cccc([As](=O)(O)O)c1`, the activation was inactive: 0%.

Consider `Cc1cc(SC(NC=O)C(Cl)(Cl)Cl)ncn1` (stereo not given), for which the activation is inactive: 0%.

On to `ClCCSc1nnc(-c2cccnc2)o1`, for which the activation was inactive: -0.3%.

For the compound `CCN(CC)C(=S)SC(NC=O)C(Cl)(Cl)Cl` (stereo not given), the activation is inactive: 0%.

On to `CC(C)NC(=O)NP(=O)(Oc1ccccc1)Oc1ccccc1`, for which the activation was inactive: -0.3%.

Turning to `O=[N+]([O-])c1cc([N+](=O)[O-])c(-c2ccn[nH]2)s1`, the activation was inactive: -0.5%.

For `Cc1ccc(OP(=O)(Nc2ccc([N+](=O)[O-])cn2)Oc2ccc(C)cc2)cc1`, the activation is inactive: 0.2%.

Turning to `Cc1ccc2nc3c(c(C)c2c1)CC(C(Cl)Cl)S3` (stereo not given), the activation is inactive: -0.2%.

Take `COc1ccc(N/C(=N/P(=O)(N2CCOCC2)N2CCOCC2)N2CCOCC2)cc1`: the activation is inactive: 0.1%.

Turning to `Cc1c2c(nc3ccccc13)SC(C(Cl)Cl)C2` (stereo not given), the activation is inactive: 0%.

As to `O=C(OC1CN2CCC1CC2)C12CC3CC(CC(C3)C1)C2` (stereo not given), the activation is inactive: 0.2%.

As to `Cc1cc(=O)[nH]c(N[N+](=O)[O-])n1`, the activation is inactive: -0.6%.

Regarding `Cc1ccc(NCCc2c([N+](=O)[O-])cc([N+](=O)[O-])cc2[N+](=O)[O-])cc1`, the activation was inactive: 0.2%.

As to `Nc1cccc2c([As](=O)(O)O)cccc12`, the activation is inactive: 1%.

As to `CCCOP(=S)(Nc1nc(N)cc(=O)[nH]1)OCCC`, the activation is inactive: 0.3%.

Take `COc1cc(C2NCCC3(OCCO3)C2(C)C)cc(OC)c1OC` (stereo not given): the activation is inactive: 0.5%.

For the compound `CCOP(=O)(Nc1cccc2ccccc12)OCC`, the activation was inactive: 0.4%.

For the compound `Cc1cccc(OCC(=O)OC2CN3CCC2CC3)c1` (stereo not given), the activation was inactive: 0%.

In the case of `CCOP1(=S)c2c(C)nn(CCC#N)c2N=C(c2ccc(F)cc2)N1C` (stereo not given), the activation is inactive: -0.2%.

Turning to `CCOP1(=S)c2c(C)nn(CCC#N)c2N=C(c2ccccc2F)N1C` (stereo not given), the activation is inactive: 0.5%.

Take `O=P(Nc1nccs1)(Oc1ccccc1)Oc1ccccc1`: the activation was inactive: 0%.

On to `CS(=O)(=O)c1cc([N+](=O)[O-])c2no[n+]([O-])c2c1`, for which the activation is inactive: 0.2%.

As to `Nc1ccccc1[As](=O)(O)c1ccccc1`, the activation is inactive: 0.9%.

`O=C(O)COc1ccc([As](=O)(O)O)cc1[N+](=O)[O-]`: the activation is inactive: 0%.

Regarding `O=P1(Nc2ncccn2)COc2ccccc2OC1`, the activation was inactive: 0.2%.

With `Cc1ccc(OCC(=O)OC2CN3CCC2CC3)cc1` (stereo not given), the activation is inactive: -0.4%.

Regarding `CC1CCC(C(C)C)C(OP(=O)(Nc2ccccn2)c2ccccc2)C1` (stereo not given), the activation was inactive: 0.7%.

Turning to `Cc1ccc(C(=O)OC2CN3CCC2CC3)cc1` (stereo not given), the activation was inactive: 0.2%.

For `CN(C)C1(CNC(=O)c2ccc(S(C)(=O)=O)cc2)CCCCC1`, the activation is inactive: -0.3%.

For the compound `CC(C)/C=N\N=C(\N)N[N+](=O)[O-]`, the activation was inactive: 0.1%.

In the case of `CN(C(=O)Cc1ccc(Cl)c(Cl)c1)[C@@H]1CCCC[C@H]1N1CCCC1`, the activation was inactive: -0.5%.

Consider `CCC1=CC2Cc3nc4ccc(Cl)cc4c(N)c3C(C1)C2` (stereo not given), for which the activation was inactive: 0.4%.

Consider `CCOP(=O)(NC(=NC(C)c1ccccc1)NC(C)c1ccccc1)OCC` (stereo not given), for which the activation is inactive: -0.2%.

As to `CCOP(=O)(Nc1ccc(C)cn1)OCC`, the activation was inactive: 0.4%.

`Clc1n[nH]nc1-c1nn[nH][15n]1`: the activation is inactive: 0%.

With `CC(C)(C)C(=O)NC(Sc1ncccn1)C(Cl)(Cl)Cl` (stereo not given), the activation is inactive: 0.1%.

Take `CC(C)C(=O)NC(Sc1ccccc1)C(Cl)(Cl)Cl` (stereo not given): the activation is inactive: 0.1%.

As to `O=P(Nc1nccs1)(c1ccccc1)c1ccccc1`, the activation is inactive: 0.2%.

On to `c1nnnn1CCn1cnnn1`, for which the activation is inactive: -0.2%.

`CC(=O)NC(SC(=S)N(C)C)C(Cl)(Cl)Cl` (stereo not given): the activation was inactive: 0.1%.

Regarding `Nc1ccc([As](=O)(O)c2ccc([N+](=O)[O-])cc2)cc1`, the activation was inactive: -0.3%.

Take `C(Cc1nn[nH]n1)Cc1nn[nH]n1`: the activation is inactive: 0%.

Regarding `CN(C)C1(CNC(=O)c2ccc(Cl)c(S(N)(=O)=O)c2)CCCCC1`, the activation is inactive: 0%.

Consider `O=P(Nc1nc2ccccc2s1)(c1ccccc1)c1ccccc1`, for which the activation is inactive: -0.2%.

In the case of `C[C@H]1OP(=O)(Oc2ccccc2)[C@H](O)[C@H](O)[C@H]1N=[N+]=[N-]` (stereo not given in full), the activation is inactive: 0%.

For the compound `CCC(=O)N1C2C3N(C(=O)CC)C1C1N(C(=O)CC)C(C(N1C(=O)CC)N3C(=O)CC)N2C(=O)CC`, the activation was inactive: 0%.

On to `COC(=O)c1cc2c(s1)N=C(c1ccccc1)N(C)P2(=O)N1CCOCC1` (stereo not given), for which the activation is inactive: 0.3%.

For `CC(=O)NC(SC(=S)N(CC(C)C)CC(C)C)C(Cl)(Cl)Cl` (stereo not given), the activation is inactive: -0.2%.

As for `Cc1ccc(OP(=O)(Nc2ccccn2)Oc2ccc(C)cc2)cc1`, the activation is inactive: 0.8%.

Regarding `Cc1ccccc1OP(=O)(Nc1ccccn1)Oc1ccccc1C`, the activation was inactive: -0.3%.

For the compound `CN(C)C(=O)Oc1noc2ccccc12`, the activation is inactive: 0.6%.

Turning to `O=c1c2cc([N+](=O)[O-])ccc2[nH]c2c([N+](=O)[O-])cc([N+](=O)[O-])cc12`, the activation was inactive: -0.2%.

On to `c1ccc(-c2nn[nH]n2)c(-c2nn[nH]n2)c1`, for which the activation is inactive: 0.5%.

Consider `Cc1ccc(NP(=O)(Oc2cccc(C)c2)Oc2cccc(C)c2)nc1`, for which the activation was inactive: -0.3%.

In the case of `O=C(NC1CCS(=O)(=O)C1)NP(=S)(Oc1ccccc1)Oc1ccccc1` (stereo not given), the activation is inactive: -0.3%.

Take `C[C@@H]1C=CCP(=O)(Oc2ccccc2)O1` (stereo not given in full): the activation is inactive: 0.3%.

Regarding `C[C@H]1OP(=O)(Oc2ccccc2)C[C@@H]2O[C@@H]21` (stereo not given in full), the activation is inactive: 0%.

With `CC(=O)Nc1ccc([As](=O)(O)O)c(O)c1`, the activation is inactive: 0.5%.

Consider `CC(=O)Nc1ccc(Oc2c([N+](=O)[O-])cc([N+](=O)[O-])cc2[N+](=O)[O-])cc1`, for which the activation was inactive: 0.2%.

Turning to `O=P1(Nc2nc3ccc(Cl)cc3s2)COc2ccccc2O1` (stereo not given), the activation is inactive: -0.2%.

For `CCOc1ccc(C2=NCC(CBr)S2)cc1` (stereo not given), the activation was inactive: 0.6%.

As to `CC(C)(C)C(=O)NC(Sc1ccccc1)C(Cl)(Cl)Cl` (stereo not given), the activation is inactive: 0.4%.

For the compound `Cc1c2non([O-])c-2c(C)[n+](=O)[n+]1[O-]`, the activation is inactive: -0.3%.

Consider `O=C(NC(Sc1ccncn1)C(Cl)(Cl)Cl)c1ccccc1` (stereo not given), for which the activation is inactive: -0.3%.

For the compound `CC(C)CC(=O)NC(Sc1ccc(Cl)cc1)C(Cl)(Cl)Cl` (stereo not given), the activation was inactive: -0.3%.

Regarding `Nc1cc(N)c2nonc2c1[N+](=O)[O-]`, the activation is inactive: -0.3%.

For `Cc1ccc(N/C(=N/P(=O)(N2CCOCC2)N2CCOCC2)N2CCOCC2)cc1`, the activation was inactive: -0.4%.

For the compound `NC(=O)c1cc([N+](=O)[O-])cc([N+](=O)[O-])c1N`, the activation was inactive: 0%.

`CN1CCCC(OC(=O)C(c2ccccc2)c2ccccc2)C1` (stereo not given): the activation was inactive: 0.4%.

As for `COc1ccccc1OP(=O)(Nc1ccc(C)cn1)Oc1ccccc1OC`, the activation was inactive: 0.3%.

For `Cc1ccc(OP(=O)(Nc2nccs2)Oc2ccc(C)cc2)cc1`, the activation is inactive: 0.3%.

Turning to `O=[N+]([O-])c1cc([N+](=O)[O-])c(CCN2CCOCC2)c([N+](=O)[O-])c1`, the activation was inactive: 0%.

Consider `Nc1cccc2ccc([As](=O)(O)O)cc12`, for which the activation was inactive: 0.3%.

In the case of `CCN(N=Nc1nonc1N)c1nonc1N`, the activation is inactive: 0.1%.

As for `O=P(Nc1nc2ccc(Cl)cc2s1)(c1ccccc1)c1ccccc1`, the activation is inactive: 0.6%.

Regarding `O=C(O)c1ccccc1[As](=O)(O)O`, the activation was inactive: 0%.

For the compound `CC(=O)Nc1ccc([As](=O)(O)O)cc1`, the activation is inactive: 0.2%.

As to `CCOP(=O)(Nc1ccccc1)OCC`, the activation was inactive: 0.6% and inactive: -0.6%.

Turning to `Cc1cc(SC(NC(=O)c2ccc(F)cc2)C(Cl)(Cl)Cl)ncn1` (stereo not given), the activation is inactive: 0%.

Consider `Cc1ccc(NP(=O)(Oc2ccccc2F)Oc2ccccc2F)nc1`, for which the activation is inactive: 0.4%.

For `O=[N+]([O-])c1ncn(CCn2ncnc2[N+](=O)[O-])n1`, the activation was inactive: 1.1%.

With `CC(C)(C)C(=O)NC(Sc1ccncn1)C(Cl)(Cl)Cl` (stereo not given), the activation is inactive: 0%.

As to `O=C(O)CNc1ccc([As](=O)(O)O)cc1`, the activation is inactive: 0.5%.

As to `O=C(Nc1cc([As](=O)(O)O)ccc1O)c1ccccc1`, the activation was inactive: 0.3%.

Regarding `CCN(/C(=N/P(=O)(N1CCOCC1)N1CCOCC1)N1CCOCC1)c1ccc(OC)cc1`, the activation is inactive: -0.4%.

Regarding `CN(C)C(=O)OCCc1n(C)cc[n+]1C`, the activation is inactive: 0.3%.

Consider `COc1ccc(C2=NCC(CBr)S2)cc1` (stereo not given), for which the activation is inactive: 0.2%.

As for `Cc1ccc(NP(=O)(Oc2ccccc2)Oc2ccccc2)nc1`, the activation is inactive: -0.2%.

For the compound `CCc1nc2c(n1)c1c(non1O)c1c2no[n+]1[O-]`, the activation is inactive: 0.2%.

Take `O=[N+]([O-])c1cc([N+](=O)[O-])c(CCNc2ccccc2)c([N+](=O)[O-])c1`: the activation is inactive: -0.4%.

For `CC(=O)N1C2C3N(C(C)=O)C1C1N(C(C)=O)C(C(N1C(C)=O)N3C(C)=O)N2C(C)=O`, the activation is inactive: 0%.
